We go through 5 compounds from paper PMC6009971.

Sequences of proteins named here, by UniProt entry; tags and fusion partners are left off. Residues count along the entry.
UniProt P00915, 2-261 limits assumed: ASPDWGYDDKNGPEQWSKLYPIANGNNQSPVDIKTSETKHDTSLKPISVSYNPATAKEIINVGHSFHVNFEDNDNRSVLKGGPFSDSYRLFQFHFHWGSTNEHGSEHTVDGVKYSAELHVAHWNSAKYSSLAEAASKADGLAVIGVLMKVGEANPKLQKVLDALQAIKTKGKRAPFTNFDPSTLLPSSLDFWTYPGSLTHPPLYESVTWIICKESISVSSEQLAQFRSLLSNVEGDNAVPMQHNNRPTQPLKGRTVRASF
UniProt O43570, 30-289 limits assumed: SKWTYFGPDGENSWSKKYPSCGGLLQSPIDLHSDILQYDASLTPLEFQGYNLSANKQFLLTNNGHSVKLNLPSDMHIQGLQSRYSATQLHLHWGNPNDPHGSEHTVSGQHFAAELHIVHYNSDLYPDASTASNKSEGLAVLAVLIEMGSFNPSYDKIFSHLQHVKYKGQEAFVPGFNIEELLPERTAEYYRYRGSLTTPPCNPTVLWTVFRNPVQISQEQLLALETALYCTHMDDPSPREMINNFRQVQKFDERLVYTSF

Read-outs that look alike come from different tables or passages of the source.

Assay in all cases: stopped-flow CO2 hydration assay
The target of one assay is hCA I (Homo sapiens, UniProt P00915). The note with it: CO2 1.7-17 mM, 10 mM HEPES pH 7.5, 0.1 M Na2SO4, 25 °C, 15 min pre-incubation, unit printed μm means µM.
In the next assay the target is hCA II (Homo sapiens, UniProt P00918). The note with it: CO2 1.7-17 mM, 10 mM HEPES pH 7.5, 0.1 M Na2SO4, 25 °C, 15 min pre-incubation, unit printed μm means µM.
In another assay the target is hCA IX (Homo sapiens, UniProt Q16790). The note with it: read-out: Ki ^* (μm) ^* / hCA IX^b; CO2 1.7-17 mM, 10 mM HEPES pH 7.5, 0.1 M Na2SO4, 25 °C, 15 min pre-incubation; unit printed μm means µM.
For a further assay, the target named is hCA XII (Homo sapiens, UniProt O43570). The note with it: read-out: Ki ^* (μm) ^* / hCA XII^b; CO2 1.7-17 mM, 10 mM HEPES pH 7.5, 0.1 M Na2SO4, 25 °C, 15 min pre-incubation; unit printed μm means µM.
Setting [1] is: read-out: Selectivity ratios / I/IX.
Where [2] appears, read: read-out: Selectivity ratios / I/XII.

Take `Cc1ccc(S(=O)(=O)N(Cc2ccccc2)/C(F)=C\C=C\c2ccccc2)cc1`: the Ki on hCA I (setting [1]) was over 100 µM; at hCA II (setting [1]) it was over 100 µM; at hCA IX it was 0.021 µM; on hCA XII, 0.366 µM.
Take `Cc1ccc(S(=O)(=O)N(Cc2ccccc2)/C(F)=C\c2ccsc2)cc1`: the Ki on hCA I (setting [1]) is over 100 µM; at hCA II (setting [1]) it was over 100 µM; on hCA IX, 0.038 µM; on hCA XII it was 4.08 µM.
Consider `O=C1c2ccccc2C(=O)N1/C(F)=C\c1ccccc1`, for which the Ki at hCA I (setting [2]) is over 100 µM; at hCA II (setting [2]), over 100 µM; on hCA IX it was over 10 µM; on hCA XII, 0.116 µM.
For `Cc1ccc(S(=O)(=O)N(Cc2ccccc2)/C(F)=C\c2cccs2)cc1`, the Ki at hCA I (setting [1]) is over 100 µM; on hCA II (setting [1]), over 100 µM; at hCA IX, 1 µM; on hCA XII it was over 50 µM.
As for `Cc1ccc(S(=O)(=O)N(Cc2ccccc2)/C(F)=C\c2ccccc2C)cc1`, the Ki at hCA I (setting [2]) is over 100 µM; on hCA II (setting [2]), over 100 µM; on hCA IX, over 50 µM; at hCA XII, 0.12 µM.
